Measured values taken from publication PMC4926326, “Synthesis, Biological Activity, and Apoptotic Properties of NO-Donor/Enmein-Type ent-Kauranoid Hybrids” (International Journal of Molecular Sciences, 2016).

Tested on: Bel-7402 hepatoma cell line
Assay: MTT antiproliferative assay
Assay type: cell-based, human
Conditions: SI = IC50, L-02/IC50, Bel-7402
Procedure: The antiproliferative activity of 9a–i against four human cancer cell lines K562 leukemia cell line, MGC-803 gastric cancer cell line, CaEs-17 esophageal cancer cell line, and Bel-7402 hepatoma cell line, and human normal liver cells L-02 was evaluated by MTT assay (Table 2).
MTT assay was developed to monitor mammalian cell survival and proliferation in vitro [32]. CaEs-17 cells (K562, Bel-7402 and MGC-803 cells) from American Type Culture Collection (ATCC, Manassas, VA, USA) were cultivated in RPMI-1640 medium supplemented with 5% fetal bovine serum (v/v), 100 U/mL penicillin, and […] streptomycin. Cells (5 × 10^4 cell/mL) at the log phase of their growth cycle were added to each well of a 96-well plate (100 µL/well) and incubated for 24 h at 37 °C in a humidified atmosphere of 5% CO2. Then, cells were treated with or without test compounds in different concentrations. After 72 h, 5 mg/mL MTT solution (20 µL per well) was added. Cells were incubated at 37 °C. After 4 h, MTT solution was removed and DMSO was added to each well (150 µL). Ten minutes later at room temperature, the optical density (OD) values were measured at the wavelength of 490 nm on a Microplate Reader NO. 550 (BIO-RAD Instruments Inc., Hercules, CA, USA). In this experiment, 10 µg/mL of Taxol was used as the positive control and 0.1% DMSO was used as the negative reference.

SMILES: C=C1C(=O)[C@@]23C(=O)O[C@H]4CCC(C)(C)[C@H]5[C@H](O)OC[C@@]45[C@@H]2CC[C@@H]1[C@H]3O [Compound 8]
- SI (selectivity index): 0.7
